Reference: patent US7632933B2, “Corticotropin releasing factor 2 receptor agonists” (priority 2002, dated 2009)

Experiments:
[1] = target: T1, CRF1R (Homo sapiens, UniProt P34998); assay: CRF1R agonist activity (EC50 and Emax), called comparative CRF binding; type: cell-based; conditions: CRF1R EC50 (nM), CRF1R
T1 sequence (P34998 24-415): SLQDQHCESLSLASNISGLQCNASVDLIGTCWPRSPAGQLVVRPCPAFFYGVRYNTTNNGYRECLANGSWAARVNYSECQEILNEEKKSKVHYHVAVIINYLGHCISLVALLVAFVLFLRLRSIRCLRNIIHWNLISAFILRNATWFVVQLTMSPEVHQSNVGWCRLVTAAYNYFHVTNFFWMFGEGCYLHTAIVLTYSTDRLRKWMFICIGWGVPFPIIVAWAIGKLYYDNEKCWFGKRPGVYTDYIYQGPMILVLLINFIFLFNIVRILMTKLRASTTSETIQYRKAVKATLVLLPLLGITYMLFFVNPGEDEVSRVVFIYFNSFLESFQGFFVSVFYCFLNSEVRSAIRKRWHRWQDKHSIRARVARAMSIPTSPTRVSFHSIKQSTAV
How it was run: (§1)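 cAMP read-out: lysates of CRF1R- or CRF2R-expressing cells assayed after peptide exposure, compared against vehicle-treated cells; signal from any non-target CRFR subtracted as background.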

[2] = target: T2, CRF2R (Homo sapiens, UniProt Q13324); assay: CRF2R agonist activity (EC50 and Emax), called comparative CRF binding; type: cell-based; conditions: CRF2R EC50 (nM), CRF2R
T2 sequence (Q13324 1-411): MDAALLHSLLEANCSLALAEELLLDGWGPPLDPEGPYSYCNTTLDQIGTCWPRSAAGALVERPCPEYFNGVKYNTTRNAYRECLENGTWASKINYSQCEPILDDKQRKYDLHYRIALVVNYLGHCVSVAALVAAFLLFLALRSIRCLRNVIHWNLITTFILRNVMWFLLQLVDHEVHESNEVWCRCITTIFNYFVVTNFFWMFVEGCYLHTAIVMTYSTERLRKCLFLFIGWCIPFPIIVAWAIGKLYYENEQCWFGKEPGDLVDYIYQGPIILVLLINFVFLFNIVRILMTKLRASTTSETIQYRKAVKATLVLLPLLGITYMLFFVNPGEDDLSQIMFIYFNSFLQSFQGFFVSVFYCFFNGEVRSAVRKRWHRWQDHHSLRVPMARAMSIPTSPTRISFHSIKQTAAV
How it was run: as §1

CC[C@H](C)[C@H](NC(=O)[C@@H](NC(=O)[C@H](C)NC(=O)[C@H](CC(C)C)NC(=O)[C@H](CC(C)C)NC(=O)[C@H](CC(C)C)NC(=O)[C@H](C)NC(=O)[C@H](CC(N)=O)NC(=O)[C@H](CC(N)=O)NC(=O)[C@H](C)NC(=O)[C@H](C)NC(=O)[C@H](CCC(N)=O)NC(=O)[C@H](CCC(N)=O)NC(=O)[C@H](CCCCN)NC(=O)[C@H](CCC(=O)O)NC(=O)[C@H](CCCCN)NC(=O)[C@H](CCC(=O)O)NC(=O)[C@H](CCC(N)=O)NC(=O)[C@H](CCCCN)NC(=O)[C@H](CCC(=O)O)NC(=O)[C@@H](NC(=O)[C@H](CCC(=O)O)NC(=O)[C@@H](NC(=O)[C@H](CCSC)NC(=O)[C@H](CCCCN)NC(=O)[C@H](CCCNC(=N)N)NC(=O)[C@H](CC(C)C)NC(=O)[C@H](CC(C)C)NC(=O)[C@H](Cc1ccc(O)cc1)NC(=O)[C@H](CC(C)C)NC(=O)[C@@H]1CCCN1C(=O)[C@H](CC(C)C)NC(=O)[C@H](CC(=O)O)NC(=O)[C@@H](NC(=O)[C@H](CO)NC(=O)[C@@H](NC(=O)[C@@H]1CCCN1C(=O)[C@@H]1CCCN1C(=O)CNC(=O)[C@@H]1CCC(=O)N1)[C@@H](C)CC)[C@@H](C)CC)[C@@H](C)CC)[C@@H](C)CC)[C@@H](C)O)C(N)=O [compound 245]
EC50 [1]: 381 nM
EC50 [2]: 7.5 nM

CC[C@H](C)[C@H](NC(=O)[C@@H](NC(=O)[C@H](CC(=O)O)NC(=O)[C@H](CC(C)C)NC(=O)[C@H](CC(C)C)NC(=O)[C@H](CC(C)C)NC(=O)[C@H](C)NC(=O)[C@H](CC(N)=O)NC(=O)[C@H](CC(N)=O)NC(=O)[C@H](C)NC(=O)[C@H](C)NC(=O)[C@H](CCC(N)=O)NC(=O)[C@H](CCC(N)=O)NC(=O)[C@H](CCCCN)NC(=O)[C@H](CCC(=O)O)NC(=O)[C@H](CCCCN)NC(=O)[C@H](CCC(=O)O)NC(=O)[C@H](CCC(N)=O)NC(=O)[C@H](CCCCN)NC(=O)[C@H](CCC(=O)O)NC(=O)[C@@H](NC(=O)[C@H](CCC(=O)O)NC(=O)[C@@H](NC(=O)[C@H](CCSC)NC(=O)[C@H](CCCCN)NC(=O)[C@H](CCCNC(=N)N)NC(=O)[C@H](CC(C)C)NC(=O)[C@H](CC(C)C)NC(=O)[C@H](Cc1c[nH]cn1)NC(=O)[C@H](Cc1ccccc1)NC(=O)[C@@H]1CCCN1C(=O)[C@H](CC(C)C)NC(=O)[C@H](CC(=O)O)NC(=O)[C@@H](NC(=O)[C@H](CO)NC(=O)[C@@H](NC(=O)[C@@H]1CCCN1C(=O)[C@@H]1CCCN1C(=O)CNC(=O)[C@@H]1CCC(=O)N1)[C@@H](C)CC)[C@@H](C)CC)[C@@H](C)CC)[C@@H](C)CC)[C@@H](C)O)C(N)=O [compound 228]
EC50 [1]: 275 nM
EC50 [2]: 7.1 nM

CC[C@H](C)[C@H](NC(=O)[C@@H](NC(=O)[C@H](CC(=O)O)NC(=O)[C@H](CC(C)C)NC(=O)[C@H](CC(C)C)NC(=O)[C@H](CC(C)C)NC(=O)[C@H](CCCNC(=N)N)NC(=O)[C@H](CC(N)=O)NC(=O)[C@H](CC(N)=O)NC(=O)[C@H](C)NC(=O)[C@H](C)NC(=O)[C@H](CCC(N)=O)NC(=O)[C@H](CCC(N)=O)NC(=O)[C@H](CCCCN)NC(=O)[C@H](CCC(=O)O)NC(=O)[C@H](CCCCN)NC(=O)[C@H](CCC(=O)O)NC(=O)[C@H](CCC(N)=O)NC(=O)[C@H](CCCCN)NC(=O)[C@H](CCC(=O)O)NC(=O)[C@@H](NC(=O)[C@H](CCC(=O)O)NC(=O)[C@@H](NC(=O)[C@H](CCSC)NC(=O)[C@H](CCCCN)NC(=O)[C@H](CCCNC(=N)N)NC(=O)[C@H](CC(C)C)NC(=O)[C@H](CC(C)C)NC(=O)[C@H](CO)NC(=O)[C@@H](NC(=O)[C@@H]1CCCN1C(=O)[C@H](CC(C)C)NC(=O)[C@H](CC(=O)O)NC(=O)[C@@H](NC(=O)[C@H](CO)NC(=O)[C@@H](NC(=O)[C@@H]1CCCN1C(=O)[C@@H]1CCCN1C(=O)CNC(=O)[C@@H]1CCC(=O)N1)[C@@H](C)CC)[C@@H](C)CC)[C@@H](C)CC)[C@@H](C)CC)[C@@H](C)CC)[C@@H](C)O)C(N)=O [compound 53]
EC50 [1]: > 1000 nM
EC50 [2]: > 100 nM

CC[C@H](C)[C@H](NC(=O)[C@H](CCC(=O)O)NC(=O)[C@@H](NC(=O)[C@H](CCSC)NC(=O)[C@H](CCCCN)NC(=O)[C@H](CCCNC(=N)N)NC(=O)[C@H](CC(C)C)NC(=O)[C@H](CC(C)C)NC(=O)[C@H](CCC(N)=O)NC(=O)[C@H](Cc1ccccc1)NC(=O)[C@@H]1CCCN1C(=O)[C@H](CC(C)C)NC(=O)[C@H](CC(=O)O)NC(=O)[C@@H](NC(=O)[C@H](CO)NC(=O)[C@@H](NC(=O)[C@@H]1CCCN1C(=O)[C@@H]1CCCN1C(=O)CNC(=O)[C@@H]1CCC(=O)N1)[C@@H](C)CC)[C@@H](C)CC)[C@@H](C)CC)C(=O)N[C@@H](CCC(=O)O)C(=O)N[C@@H](CCCCN)C(=O)N[C@@H](CCC(N)=O)C(=O)N[C@@H](CCC(=O)O)C(=O)N[C@@H](CCCCN)C(=O)N[C@@H](CCC(=O)O)C(=O)N[C@@H](CCCCN)C(=O)N[C@@H](CCC(N)=O)C(=O)N[C@@H](CCC(N)=O)C(=O)N[C@@H](C)C(=O)N[C@H](C(=O)N[C@H](C(=O)N[C@@H](CC(N)=O)C(=O)N[C@@H](CCCNC(=N)N)C(=O)N[C@@H](CC(C)C)C(=O)N[C@@H](CC(C)C)C(=O)N[C@@H](CC(C)C)C(=O)N[C@@H](CC(=O)O)C(=O)N[C@H](C(=O)N[C@H](C(N)=O)C(C)C)[C@@H](C)O)[C@@H](C)O)[C@@H](C)O [compound 16]
EC50 [1]: 136 nM
EC50 [2]: 7.88 nM

CC[C@H](C)[C@H](NC(=O)[C@@H](NC(=O)[C@H](CC(=O)O)NC(=O)[C@H](CC(C)C)NC(=O)[C@H](CC(C)C)NC(=O)[C@H](CC(C)C)NC(=O)[C@H](CCCNC(=N)N)NC(=O)[C@H](CC(N)=O)NC(=O)[C@H](CC(N)=O)NC(=O)[C@H](C)NC(=O)[C@H](C)NC(=O)[C@H](CCC(N)=O)NC(=O)[C@H](CCC(N)=O)NC(=O)[C@H](CCCCN)NC(=O)[C@H](CCC(=O)O)NC(=O)[C@H](CCCCN)NC(=O)[C@H](CCC(=O)O)NC(=O)[C@H](CCC(N)=O)NC(=O)[C@H](CCCCN)NC(=O)[C@H](CCC(=O)O)NC(=O)[C@@H](NC(=O)[C@H](CCC(=O)O)NC(=O)[C@@H](NC(=O)[C@H](CCSC)NC(=O)[C@H](CCCCN)NC(=O)[C@H](CCCNC(=N)N)NC(=O)[C@H](CC(C)C)NC(=O)[C@H](CC(C)C)NC(=O)[C@@H]1CCCN1C(=O)[C@@H](NC(=O)[C@@H]1CCCN1C(=O)[C@H](CC(C)C)NC(=O)[C@H](CC(=O)O)NC(=O)[C@@H](NC(=O)[C@H](CO)NC(=O)[C@@H](NC(=O)[C@@H]1CCCN1C(=O)[C@@H]1CCCN1C(=O)CNC(=O)[C@@H]1CCC(=O)N1)[C@@H](C)CC)[C@@H](C)CC)[C@@H](C)O)[C@@H](C)CC)[C@@H](C)CC)[C@@H](C)O)C(N)=O [compound 52]
EC50 [1]: > 1000 nM
EC50 [2]: > 100 nM
